Measured values from patent US5597899A, “Tumor necrosis factor muteins” (Hoffmann-La Roche Inc., priority 1993, dated 1997).

Tests used:
human TNFR-p75 = assay: Solid phase radioligand competition binding assay, E. coli lysates, TNFR-p75; conditions: 10-fold serial dilutions 10^-2 to 10^-7, < = inhibition but below 50% at 1:100, << = no measurable inhibition at 1:100
Procedure: (§1) 10 ml suspensions of E. coli cells transformed and induced as described in Examples I and II were centrifuged at 4'000 rpm for 10 min and resuspended in 0.9 ml of lysis buffer (10 mM Tris-HCl pH 8.0, 5 mM EDTA, 2 mM PMSF, 10 mM benzamidine, 200 units/ml aprotinine and 0.1 mg/ml lysozyme). After 20 min incubation at room temperature 50 μl of 1M MgCl2, 20 μl of 5 mg/ml DNaseI, 50 μl of 5M NaCl and 50 μl of 10% NP-40 were added and the mixture was further incubated at room temperature for 15 min. 0.5 ml of the lysate clarified by centrifugation at 13'000 rpm for 5 min was subjected to ammonium sulfate precipitation (25%-70% cut). The 70% ammonium sulfat pellet was dissolved in 0.2 ml PBS and analyzed by sodium dodecyl sulfate polyacrylamide gel electrophoresis (SDS-PAGE) to confirm presence and approximate amount of the recombinant proteins.
96 well microtiter plates were coated with recombinant human […] TNFR-p75-hγ3 and TNFR-p55-hγ3 fusion proteins (extracellular portion of the receptor fused to the Fc part of human IgG3) at a concentration of 0.3 μg/ml and 0.1 μg/ml, respectively, in phosphate buffered saline (PBS, 100 μl/well, overnight at 4° C.) [Loetscher, H. et al. J. Biol. Chem. 266, 18324-18329 (1991); Lesslauer, W. et al. Eur. J. Immunol. 21, 2883-2886 (1991)]. […] After three hours at room temperature the wells were thoroughly washed with PBS and counted in a γ-counter. […]

human TNFR-p55 = assay: Solid phase radioligand competition binding assay, E. coli lysates, TNFR-p55; conditions: 10-fold serial dilutions 10^-2 to 10^-7, < = inhibition but below 50% at 1:100, << = no measurable inhibition at 1:100
Procedure: as §1, with “After” for “10 ml suspensions of E. coli cells transformed and induced as described in Examples I and II were centrifuged at 4'000 rpm for 10 min and resuspended in 0.9 ml of lysis buffer (10 mM Tris-HCl pH 8.0, 5 mM EDTA, 2 mM PMSF, 10 mM benzamidine, 200 units/ml aprotinine and 0.1 mg/ml lysozyme). After”
TNFα was labelled by the Iodogen method (Pierce Chemical Company) to a specific activity of about 10-30 μCi/μg. The volume was 100 μl/well and each lysate dilution was assayed in duplicate or triplicate. After three hours at room temperature the wells were thoroughly washed with PBS and counted in a γ-counter. The results are given in Table 2 for lysates comprising the muteins indicated therein.

C57B16 mice = conditions: cited from earlier work

Substance: wildtype: (wild-type) human TNF-α, 157 amino acids, SEQ ID:2 [reference compound]
- Dilution of E. coli Lysate for 50% Inhibition of 125I-TNFα Binding (ID50) TNFR-p75 (human TNFR-p75): 14,140 fold
- Dilution of E. coli Lysate for 50% Inhibition of 125I-TNFα Binding (ID50) TNFR-p55 (human TNFR-p55): 14,260 fold
- LD50 (C57B16 mice): ~500 μg/mouse
